# Results as given in patent US8313771B2, “Phosphazene hydrogels with chemical corss-link, preparation method thereof and use thereof” (Korea Institute of Science and Technology, priority 2007, dated 2012).
# Settings: pH 7.4
substance,measurement,value
poly[(isoleucine ethyl ester)(aminomethoxypolyethylene glycol 550)(glycylglycine)(glycylglycylcystine ethyl ester)phosphazene] [Example 15],Max. gelling temp.,30 °C
